Apparent affinities of Ab-14 variants for a coronavirus HR2 peptide

Antigen: PDVDLGDISGINAS, a 14-residue peptide of the SARS-CoV-2 spike HR2 region.

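The starting antibody came from a phage panning campaign against this peptide. Designed CDR sequences, proposed from the first random library and measured here. Their group label is 14H_GP_Gibbs (GP: Gaussian process model; Gibbs: Gibbs sampling; a sequence that several methods proposed may carry one label only). In AlphaSeq, yeast of one mating type display the scFv and yeast of the other type display the target. Pairs that bind mate more often; barcode pairs of the diploids are counted by sequencing. The ratio of observed to expected reads was calibrated, replicate by replicate, on BCL2-family standards whose Kd was known from biolayer interferometry. There are six technical replicates.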

Each scFv is VH, three GGGGS repeats, VL, as in the parent Ab-14, and differs from it in the CDRs of the heavy chain only.
VH: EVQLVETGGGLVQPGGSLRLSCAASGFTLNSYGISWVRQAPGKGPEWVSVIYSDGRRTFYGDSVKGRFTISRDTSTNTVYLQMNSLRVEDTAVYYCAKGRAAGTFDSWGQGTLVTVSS
VL: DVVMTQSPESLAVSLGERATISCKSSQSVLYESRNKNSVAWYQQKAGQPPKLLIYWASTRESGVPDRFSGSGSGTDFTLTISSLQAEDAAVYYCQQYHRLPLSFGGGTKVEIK

The parent's heavy chain CDRs are GFTLNSYGIS, VIYSDGRRTFYGDSVK, GRAAGTFDS; each variant's own CDRs replace them letter for letter.
The read-out is the apparent dissociation constant on a log10 scale (nM): the lower, the stronger.
A mean of the replicates is given; it leaves out those without a signal.
Where no diploid with the target was found in that replicate, the entry reads "nd": below detection, most likely a poor binder, though not proof of it.
In the paper, a design with two or fewer of six values counts as a poor binder.
The parent sequence was in this pool as ten entries: three were never detected, three once, and four in most replicates, with averages from 0.34 to 2.37.
Values of this round are not directly comparable with the first-round values of the same sequences.
Nonspecific signal, from three strains lacking the peptide, appeared in 1% of pairings of all heavy chain designs, centred on 2.08 (5% of these signals below 0.84); values are not corrected for it. For each scFv, signals with the empty controls are counted beside the result, with their mean in brackets.

CDR-H1	CDR-H2	CDR-H3	replicates, log10 nM	mean, log10 nM	control signals
GFDLNSYGIS	VIYSDGKRTFYIDKVK	GQAAGTFDS	0.46 -0.50 -0.34 -0.41 -0.68 -0.75	-0.37	0 of 18
KFDLNSYGIS	VIYSDGRRTFYCDSVK	GQTAGTFDS	nd 0.68 nd 1.78 1.19 0.69	1.08	0 of 18
GFELNSYGIS	VIYSDGRRTFYVDSVK	GRMAGTFDT	0.48 1.08 nd 1.41 0.74 1.95	1.13	0 of 18
YFSLNSYGIS	VIYSDGRRTFYIDSVK	GNAAGTFDS	nd 1.04 nd nd nd nd	1.04	0 of 18
GFTLESYGIS	VIYSDGQRTFYGDSVK	GRVAGTFDS	0.84 0.64 0.82 0.43 0.63 0.81	0.70	0 of 18
GFYLNEYGIS	VIYSDGRRTMYGDSVK	GRTAGTFDS	1.25 1.52 2.22 0.73 0.63 1.25	1.27	1 of 18 (2.74)
GFELNEYGIS	VIYSDGRRTFYQDSVK	GEAAGTFDS	0.56 0.47 nd 2.06 0.33 0.36	0.76	0 of 18
GFELNAYGIS	VIYSDGRRTFYGDSVK	GKEAGTFDS	1.15 1.36 0.66 1.38 1.55 0.85	1.16	0 of 18
GFVLNSYGIS	VIYSDGKRTFYADSVK	GRTAGTFDS	0.94 0.69 0.68 0.63 -0.09 0.44	0.55	1 of 18 (2.03)
GKTLESYGIS	VIYSDGRRTFYADDVK	GRAAGTFDS	nd nd nd nd nd nd	nd	0 of 18
GFQLNSYGIS	VIYSDGRRTFYVDSVK	GRLAGTFDT	nd nd nd nd nd nd	nd	0 of 18
GFELNSYGIS	VIYSDGRRTFYGDQVK	GQTAGTFDQ	1.08 0.58 1.71 2.02 nd nd	1.35	1 of 18 (1.70)
GFELNEYGIS	VIYSDGRRTFYGDSVK	GRWAGTFDS	nd nd 0.69 nd nd nd	0.69	0 of 18
GFELNSYGIS	VIYSDGKRTFYGDMVK	GRTAGTFDS	nd nd nd 1.43 nd nd	1.43	0 of 18
GFQLNSYGIS	VIYSDGRRTFYADSVK	GREAGTFDQ	nd nd nd nd nd nd	nd	0 of 18
GFALNEYGIS	VIYSDGRRTYYGDSVK	GRAAGTFDS	nd 0.65 1.25 1.31 0.92 1.02	1.03	0 of 18
GFGLNEYGIS	VIYSDGRRTFYHDSVK	GSAAGTFDS	0.13 -0.40 -0.54 -0.64 -0.35 -0.54	-0.39	0 of 18
GFSLNDYGIS	VIYSDGRRTFYVDEVK	GRTAGTFDS	0.27 -0.16 0.01 -0.74 -0.17 -0.15	-0.16	0 of 18
GFQLNEYGIS	VIYSDGRRTFYSDQVK	GRQAGTFDS	-0.22 -0.48 -0.61 -0.69 -0.15 -0.14	-0.38	2 of 18 (1.91)
GFDLNSYGIS	VIYSDGRRTFYSDSVK	GDAAGTFDD	nd 2.39 0.41 0.61 1.17 1.51	1.22	0 of 18
GFDLNSYGIS	VIYSDGRRTFYLDSVK	GQAAGTFDS	nd nd 1.74 3.28 nd nd	2.51	0 of 18
GFELNSYGIS	VIYSDGRRTFYGDEVK	GKTAGTFDS	nd 1.15 nd 3.75 1.91 0.79	1.90	0 of 18
GFELNSYGIS	VIYSDGRRTFYADMVK	GKAAGTFDS	nd nd nd nd nd nd	nd	1 of 18 (1.81)
GFTLNSYGIS	VIYSDGRRTFYSDRVK	GQAAGTFDS	nd 0.55 0.93 1.69 1.16 1.38	1.14	0 of 18
GFTLNSYGIS	VIYSDGRRTFYIDDVK	GNAAGTFDK	0.09 0.28 0.28 -0.18 0.38 0.35	0.20	1 of 18 (1.68)
GFNLNSYGIS	VIYSDGRRTFYKDDVK	GQAAGTFDS	1.46 0.70 1.59 1.26 nd 1.26	1.25	0 of 18
GFQLNSYGIS	VIYSDGRRTFYGDQVK	GQTAGTFDE	nd nd nd nd nd nd	nd	0 of 18
GFWLNEYGIS	VIYSDGRRTMYGDSVK	GRQAGTFDS	0.62 0.44 nd nd 0.65 0.69	0.60	0 of 18
GFELNSYGIS	VIYSDGKRTFYGDQVK	GRQAGTFDS	1.95 1.31 1.46 1.31 1.61 1.56	1.53	1 of 18 (3.36)
GFNLNSYGIS	VIYSDGRRTFYLDQVK	GNTAGTFDS	0.83 1.13 1.05 1.46 1.00 1.30	1.13	0 of 18
KFSLNCYGIS	VIYSDGRRTFYGDSVK	GRTAGTFDS	nd nd nd nd nd nd	nd	0 of 18
GFSLNYYGIS	VIYSDGRRTFYSDSVK	GKTAGTFDS	1.31 1.22 0.71 0.42 1.71 1.03	1.07	0 of 18
GFTLNSYGIS	VIYSDGRRTFYGDDVK	GRVAGTFDK	nd 2.51 2.39 nd 2.24 2.41	2.39	0 of 18
GFTLNSYGIS	VIYSDGRRTFYGDPVK	GKTAGTFDS	1.27 0.69 0.81 0.87 0.72 0.88	0.87	0 of 18
GFTLNSYGIS	VIYSDGLRTFYADSVK	GNAAGTFDS	0.35 -0.04 -0.62 0.64 -0.79 0.04	-0.07	0 of 18
GFSLNSYGIS	VIYSDGRRTFYIDSVK	GATAGTFDS	0.93 1.92 nd 1.76 2.40 0.39	1.48	0 of 18
GFELNSYGIS	VIYSDGRRTFYVDSVK	GGVAGTFDT	1.28 1.90 1.03 1.13 0.25 1.37	1.16	0 of 18
GFDLNSYGIS	VIYSDGRRTFYADGVK	GKAAGTFDV	0.73 0.79 0.69 2.05 1.16 1.48	1.15	0 of 18
GFELNSYGIS	VIYSDGRRTFYGDNVK	GKTAGTFDT	0.72 0.45 0.26 0.07 0.10 0.18	0.30	1 of 18 (3.11)
GFDLNEYGIS	VIYSDGRRTFYADSVK	GRAAGTFDK	-0.34 -0.78 -0.52 -0.67 -0.50 -0.79	-0.60	0 of 18
GFDLNSYGIS	VIYSDGLRTFYEDSVK	GRTAGTFDS	-0.19 0.42 0.00 -0.16 -0.30 -0.07	-0.05	0 of 18
GFDLNSYGIS	VIYSDGRRTFYGDAVK	GKAAGTFDQ	0.55 0.91 0.60 0.63 0.33 0.51	0.59	0 of 18
KFTLNSYGIS	VIYSDGRRTFYADSVK	GRLAGTFDS	2.73 1.63 2.19 2.57 2.73 1.86	2.28	2 of 18 (2.21)
GFNLNSYGIS	VIYSDGRRTFYQDNVK	GRTAGTFDS	1.57 0.35 1.16 1.04 0.26 0.69	0.84	0 of 18
GFDLNSYGIS	VIYSDGRRTFYVDKVK	GRNAGTFDS	2.56 0.48 0.59 0.85 0.93 0.52	0.99	0 of 18
EFDLNSYGIS	VIYSDGRRTFYQDSVK	GRTAGTFDS	0.12 -0.36 0.10 -0.33 -0.64 -0.44	-0.26	0 of 18
GFFLNEYGIS	VIYSDGRRTFYGDSVK	GQAAGTFDA	0.66 1.80 0.68 2.06 0.80 1.28	1.21	1 of 18 (2.09)
GFNLNSYGIS	VIYSDGRRTFYGDRVK	GQTAGTFDL	nd nd -0.18 0.20 nd nd	0.01	0 of 18
SFELNSYGIS	VIYSDGRRTFYIDSVK	GRTAGTFDS	nd nd nd 2.01 nd 1.87	1.94	0 of 18
GFTLKSYGIS	VIYADGRRTFYGDSVK	GRAAGTFDL	0.74 1.39 0.61 0.45 0.49 0.20	0.65	0 of 18

8 of these entries, quoted again:

{"CDR-H1": "GFELNEYGIS", "CDR-H2": "VIYSDGRRTFYGDSVK", "CDR-H3": "GRWAGTFDS", "replicates, log10 nM": "nd nd 0.69 nd nd nd", "mean, log10 nM": "0.69", "control signals": "0 of 18"}
{"CDR-H1": "GFVLNSYGIS", "CDR-H2": "VIYSDGKRTFYADSVK", "CDR-H3": "GRTAGTFDS", "replicates, log10 nM": "0.94 0.69 0.68 0.63 -0.09 0.44", "mean, log10 nM": "0.55", "control signals": "1 of 18 (2.03)"}
{"CDR-H1": "GFTLKSYGIS", "CDR-H2": "VIYADGRRTFYGDSVK", "CDR-H3": "GRAAGTFDL", "replicates, log10 nM": "0.74 1.39 0.61 0.45 0.49 0.20", "mean, log10 nM": "0.65", "control signals": "0 of 18"}
{"CDR-H1": "GFQLNSYGIS", "CDR-H2": "VIYSDGRRTFYADSVK", "CDR-H3": "GREAGTFDQ", "replicates, log10 nM": "nd nd nd nd nd nd", "mean, log10 nM": "nd", "control signals": "0 of 18"}
{"CDR-H1": "GFELNSYGIS", "CDR-H2": "VIYSDGRRTFYGDNVK", "CDR-H3": "GKTAGTFDT", "replicates, log10 nM": "0.72 0.45 0.26 0.07 0.10 0.18", "mean, log10 nM": "0.30", "control signals": "1 of 18 (3.11)"}
{"CDR-H1": "GFDLNSYGIS", "CDR-H2": "VIYSDGRRTFYGDAVK", "CDR-H3": "GKAAGTFDQ", "replicates, log10 nM": "0.55 0.91 0.60 0.63 0.33 0.51", "mean, log10 nM": "0.59", "control signals": "0 of 18"}
{"CDR-H1": "GFNLNSYGIS", "CDR-H2": "VIYSDGRRTFYLDQVK", "CDR-H3": "GNTAGTFDS", "replicates, log10 nM": "0.83 1.13 1.05 1.46 1.00 1.30", "mean, log10 nM": "1.13", "control signals": "0 of 18"}
{"CDR-H1": "EFDLNSYGIS", "CDR-H2": "VIYSDGRRTFYQDSVK", "CDR-H3": "GRTAGTFDS", "replicates, log10 nM": "0.12 -0.36 0.10 -0.33 -0.64 -0.44", "mean, log10 nM": "-0.26", "control signals": "0 of 18"}

Values reported by Li et al. 2023, doi:10.1038/s41467-023-39022-2 (FLAb copy).